The nature of series [1]: Intrinsic dissolution rate. In kind it is physicochemical. As to conditions: 25 °C, 0.5 cm^2.
For series [2] the following is noted: average of two.
The nature of series [3]: Solubility in buffered/non-buffered media. As to conditions: 25 °C; for Solubility: average of three determinations.
For series [4] the following is noted: excess cocrystal in water, 25 °C.
Where [5] appears, read: initial pH 7.9 phosphate buffer.

Read-outs that look alike come from different tables or passages of the source.

ketoconazole-succinic acid cocrystal: the Dissolution rate constant in series [1] (buffers, pH 3 phthalate) was determined as 91 μg.min^-1.cm^-2; in series [1] (buffers, pH 4 phthalate), 65 μg.min^-1.cm^-2; in series [1] (buffers, pH 5 phthalate), 48 μg.min^-1.cm^-2; in series [1] (unbuffered media, pH 3 kept constant with HCl or NaOH), 185 μg.min^-1.cm^-2; in series [1] (unbuffered media, pH 4 kept constant with HCl or NaOH), 105 μg.min^-1.cm^-2; in series [1] (unbuffered media, pH 5 kept constant with HCl or NaOH) it was 62 μg.min^-1.cm^-2. The “pH h=0 (slurry pH)” value in series [2] (pH 3 phthalate buffer, initial (bulk) pH 2.93) came out at 4.38; in series [2] (pH 4 phthalate buffer, initial (bulk) pH 3.96) it was 4.19; in series [2] (pH 5 neutralized phthalate buffer, initial (bulk) pH 4.97), 4.40; in series [2] (pH 7 phosphate buffer, initial (bulk) pH 6.97) it was 4.67. The pH after equilibration in series [3] (initial pH 1.1 (0.1 M HCl)) was 2.52± 0.05; in series [3] (initial pH 2.1 HCl/KCl buffer) it was 3.38 ± 0.00; in series [3] (initial pH 5.0 acetate buffer) it was 4.60± 0.02; in series [3] (setting [5]), 7.14 ± 0.01. Moreover, the Solubility in series [3] (initial pH 1.1 (0.1 M HCl)) is 23990 ± 300 µg/mL; in series [3] (initial pH 2.1 HCl/KCl buffer), 3690 ± 70 µg/mL; in series [3] (initial pH 5.0 acetate buffer), 380 ± 30 µg/mL; in series [3] (setting [5]) it was 6 ± 1 µg/mL. Besides, in series [4], the “pH of saturated solution in water” value worked out at 4.2. Further, the “Solubility in water (as ketoconazole equivalents)” value in series [4] (saturated solution pH 4.1 (fumaric) / 4.2 (succinic)) is 1500 µg/mL.

One may read the Solubility as the dissolved amount per volume that the medium holds. A low value points to little dissolved substance.

These data come from PMC8957230 (ADMET & DMPK, 2019).
